This passage reports IC50 results from US9732097B2, “Process for the synthesis of a phosphoinositide 3-kinase inhibitor” (Incyte Corporation, priority 2015, dated 2017).

The target of the test is human JAK1 (Homo sapiens, UniProt P23458). Briefly: In vitro JAK kinase assay (Example D, HTRF), JAK1. As to conditions: 1 mM ATP. The format is biochemical. A general note: TR-FRET usually uses a lanthanide donor and a delayed reading to cut background.

In turn, `CN(C)Cc1cc(F)cc(OC2CCN(CC(CC#N)n3cc(-c4ncnc5[nH]ccc45)cn3)CC2)c1` (single isomer, unassigned) [compound 14, 4-(4-{3-[(dimethylamino)meth-yl]-5-fluorophenoxy}piperidin-1-yl)-3-[4-(7H-pyrrolo[2,3-d]pyrimidin-4-yl)-1H-pyrazol-1-yl]butanenitrile] came in with an IC50 below 0.01 µM.

Broadly, the IC50 is the point on the concentration scale where inhibition reaches its midpoint. Lower therefore signals inhibition by little substance.
